Results on two substances are retold here after patent US20040150788A1, “Antimicrobial lenses, processes to prepare them and methods of their use” (priority 2002, published 2004).

The nature of data set [1]: Solubility-product constant (Ksp) and molar solubility of metal salts in pure water at 25° C. The conditions noted are these: derived from Ksp (Table 4).
For data set [2] the following is noted: CRC Handbook of Chemistry and Physics, 74th edition (Table 4); cited from earlier work.

Take Silver oxide: the “Molar Solubility” value in data set [1] was 112 µM. For the same substance, in data set [2], the “Ksp In pure H2O at 25° C.” value is reported as 7.06 × 10^−13.

For the substance Silver nitrate, the “Ksp In pure H2O at 25° C.” value in data set [2] is 51.6.
